Among the data in PubChem BioAssay AID602332 (National Center for Advancing Translational Sciences (NCATS), 2012) are activation values, retold here.

Several values for one entry are separate records, joined by “and”; a condition that tells them apart may be missing. Equal entries are not always repeated. The entries are a selection whose mix differs from that of the whole data set. Some results for these compounds are left out of this collection, so the calls shown say nothing about other tests. Activity calls are given as the source filed them. The call rests on the fitted dose curve; in most records, active means well fitted activation curve with a large enough effect; inconclusive means small, poorly fitted or top-dose-only effect; inactive means no such curve, though single readings can be large or run the other way.

The assay in a line: qHTS for Inducers of the Endoplasmic Reticulum Stress Response (ERSR) in Human Glioma: qHTS. Further: % of control where 0% means no effect; nearly all actives have a fitted effect of over 35% in size. The settings on record: U87-MG GRP78 promoter luciferase reporter, 16 h; stronger effect = higher value.
In the case of `O=C(NCC1(N2CCCCC2)CCCCC1)c1cc([N+](=O)[O-])ccc1Cl`, the activation is inactive: -5.76%.
To `CN1[C@@H]2CC[C@H]1CC(OC(=O)C(O)(c1ccccc1)c1ccccc1)C2` (some centres not stated) belongs inactive: -6.27%; to `CC(C)N1C(=O)CC2(CCN(CCOC(=O)C(O)(c3ccccc3)c3ccccc3)CC2)C1=O`, inactive: 3.26%.
To `COc1cc(SC)ccc1C(=O)NCC1(N(C)C)CCCCC1` belongs inactive: -2.63%; to `CCN(CC)CC(C)C(C)OC(=O)C(O)(c1ccccc1)c1ccccc1` (configuration not stated), inactive: -2.33%.
To `CN(C)C1(CNC(=O)c2cccc(Cl)c2)CCCCC1` belongs inactive: -3%; to `CN(C)C1(CNC(=O)c2ccccc2F)CCCCC1`, inactive: 4.02%; to `Cc1ccc(C(=O)NCC2(N3CCCCC3)CCCCC2)cc1`, inactive: -2.4%.
For `CN(C)c1ccc(C(=O)NCC2(N(C)C)CCCCC2)cc1`, the activation was inactive: -1.27%.
Regarding `CN(C)C1CCCC1OC(=O)C(O)(c1ccccc1)c1ccccc1` (configuration not stated), the activation is inactive: -2.52%.
Regarding `Cc1ccccc1C(=O)NCC1(N2CCCCC2)CCCCC1`, the activation was inactive: -5.75%.
To `CN(C)C1(CNC(=O)c2ccccc2[N+](=O)[O-])CCCCC1` belongs inactive: -2.3%; to `CN1CCCC(OC(=O)C(O)(c2ccccc2)c2ccccc2)C1` (configuration not stated), inactive: -3.77%.
To `CCCCOc1ccccc1C(=O)NCC1(N(C)C)CCCCC1` belongs inactive: -4.7%; to `O=C(NCC1(N2CCCCC2)CCCCC1)c1cc(F)c(F)cc1Cl`, inactive: -3%; to `C=CCN1CCN(CCOC(=O)C(O)(c2ccccc2)c2ccccc2)CC1`, inactive: -4.32%.
In the case of `O=C(NCC1(N2CCCCC2)CCCCC1)c1cccc(Br)c1`, the activation was inactive: 0.385%.
To `CCN1CCCC(OC(=O)C2(O)c3ccccc3C=Cc3ccccc32)C1` (configuration not stated) belongs inactive: -2.18%.
Turning to `Cc1cc(C(=O)NCC2(N3CCCCC3)CCCCC2)ccc1[N+](=O)[O-]`, the activation is inactive: -3.17%.
As for `CCOc1cccc(C(=O)NCC2(N(C)C)CCCCC2)c1`, the activation was inactive: -2.8%.
To `COc1ccc(C(=O)NCC2(N(C)C)CCCCC2)cc1` belongs inactive: 1.23%; to `O=C(CBr)c1ccc(Cl)cc1`, inactive: 3.7%; to `COc1cc(C(=O)NCC2(N(C)C)CCCCC2)c([N+](=O)[O-])cc1OC`, inactive: -4.72%.
Take `COc1ccc(C(=O)NCC2(N(C)C)CCCCC2)cc1Cl`: the activation was inactive: -3.78%.
Turning to `COc1ccc(Cl)cc1C(=O)NCC1(N(C)C)CCCCC1`, the activation is inactive: -5.04%.
With `COc1cccc(C(=O)NCC2(N3CCCCC3)CCCCC2)c1`, the activation is inactive: -8.23%.
To `O=C(NCC1(N2CCCCC2)CCCCC1)c1cccc(Cl)c1` belongs inactive: -6.18%; to `O=C(OC1CN2CCC1CC2)C(CO)(c1ccccc1)c1ccccc1` (configuration not stated), inactive: -2.19%.
Consider `COc1cccc(C(=O)NCC2(N3CCOCC3)CCCCC2)c1`, for which the activation was inactive: -1.73%.
Turning to `CC(C)COc1ccc(C(=O)NCC2(N(C)C)CCCCC2)cc1`, the activation was inactive: -3.61%.
Consider `COc1ccc(Br)c(C(=O)NCC2(N3CCCCC3)CCCCC2)c1`, for which the activation is inactive: -3.51%.
Turning to `Cc1cccc(C(=O)NCC2(N(C)C)CCCCC2)c1`, the activation is inactive: -3.99%.
On to `COc1cc(C(=O)NCC2(N(C)C)CCCCC2)cc(OC)c1OC`, for which the activation is inactive: -1.87%.
To `C=C(C)C#CC(O)(C(=O)OC1CCN(C)CC1)c1ccccc1` (configuration not stated) belongs inactive: -3.78%; to `CN(C)c1cccc(C(=O)NCC2(N(C)C)CCCCC2)c1`, inactive: -5.85%.
Consider `O=C(OCCN1CCCC1)C(O)(c1ccccc1)c1ccccc1`, for which the activation is inactive: -4.14%.
To `CC(C)Oc1ccc(C(=O)NCC2(N(C)C)CCCCC2)cc1` belongs inactive: -3.75% and inactive: -4.28%.
